For data set [1] the following is noted: BALB/c mice.
For data set [2] the following is noted: 37°C, up to 48 hours after complexation.

Turning to rhenium-^188-pyrophosphate [^188Re-PYP], in data set [1] (bone, after 4 hours), the “uptake in bone (maximum affinity)” value is listed as 2.24% ± 0.667%. In data set [1] (kidney), the “maximum uptake for the kidney” value is recorded as 1.53% ± 0.378%. For the same substance, the “maximum uptake for the liver” value in data set [1] (liver) was 0.18% ± 0.12%. In addition, the “maximum uptake for the spleen” value in data set [1] (spleen) was 0.13% ± 0.086%. Further, the “stability in human serum (radiochemical purity)” value in data set [2] worked out at 90.86%.
